Source: US7786328B2, “Cyclohexyl-1,4-diamine compounds” (dated 2010)

The chains behind the UniProt entries cited, without tags or fusion partners. Where a name states a change or a piece, a line headed by the entry shows the natural chain unless it says otherwise.
UniProt P35372, whole entry, looked up: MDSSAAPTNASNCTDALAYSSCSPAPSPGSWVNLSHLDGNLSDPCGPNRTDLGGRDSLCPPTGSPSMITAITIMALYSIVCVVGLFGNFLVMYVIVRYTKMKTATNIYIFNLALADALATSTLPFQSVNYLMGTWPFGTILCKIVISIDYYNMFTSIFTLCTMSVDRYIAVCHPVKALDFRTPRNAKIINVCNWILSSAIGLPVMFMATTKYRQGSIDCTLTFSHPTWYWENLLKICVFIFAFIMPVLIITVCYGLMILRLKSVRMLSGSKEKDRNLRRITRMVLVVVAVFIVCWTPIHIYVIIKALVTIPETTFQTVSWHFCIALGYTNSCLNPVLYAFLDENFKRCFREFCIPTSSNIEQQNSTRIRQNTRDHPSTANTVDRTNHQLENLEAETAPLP
UniProt P41146: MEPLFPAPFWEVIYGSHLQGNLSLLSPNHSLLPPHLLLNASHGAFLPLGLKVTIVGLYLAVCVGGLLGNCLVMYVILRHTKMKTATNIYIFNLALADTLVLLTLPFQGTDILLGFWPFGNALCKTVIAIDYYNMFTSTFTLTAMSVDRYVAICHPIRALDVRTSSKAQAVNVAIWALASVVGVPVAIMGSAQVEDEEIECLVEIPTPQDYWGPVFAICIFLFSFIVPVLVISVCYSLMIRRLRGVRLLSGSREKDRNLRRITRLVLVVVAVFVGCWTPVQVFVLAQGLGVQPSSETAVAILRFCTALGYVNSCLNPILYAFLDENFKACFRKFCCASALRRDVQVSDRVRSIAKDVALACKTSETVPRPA
UniProt Q9WTR4: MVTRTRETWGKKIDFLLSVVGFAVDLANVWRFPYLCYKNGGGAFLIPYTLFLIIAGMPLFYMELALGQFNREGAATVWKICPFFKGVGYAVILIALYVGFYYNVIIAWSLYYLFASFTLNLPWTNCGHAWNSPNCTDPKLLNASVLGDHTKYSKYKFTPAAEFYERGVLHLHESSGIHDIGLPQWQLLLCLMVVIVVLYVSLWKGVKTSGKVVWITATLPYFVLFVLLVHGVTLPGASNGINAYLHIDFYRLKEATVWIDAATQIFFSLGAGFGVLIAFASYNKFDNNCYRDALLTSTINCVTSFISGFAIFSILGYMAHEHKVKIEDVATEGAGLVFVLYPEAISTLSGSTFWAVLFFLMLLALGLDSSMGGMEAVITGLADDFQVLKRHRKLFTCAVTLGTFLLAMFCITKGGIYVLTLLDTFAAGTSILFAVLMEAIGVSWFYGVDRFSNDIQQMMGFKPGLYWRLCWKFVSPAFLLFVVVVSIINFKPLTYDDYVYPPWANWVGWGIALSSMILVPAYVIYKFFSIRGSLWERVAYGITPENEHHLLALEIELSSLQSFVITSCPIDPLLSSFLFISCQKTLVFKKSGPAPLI
UniProt P31652: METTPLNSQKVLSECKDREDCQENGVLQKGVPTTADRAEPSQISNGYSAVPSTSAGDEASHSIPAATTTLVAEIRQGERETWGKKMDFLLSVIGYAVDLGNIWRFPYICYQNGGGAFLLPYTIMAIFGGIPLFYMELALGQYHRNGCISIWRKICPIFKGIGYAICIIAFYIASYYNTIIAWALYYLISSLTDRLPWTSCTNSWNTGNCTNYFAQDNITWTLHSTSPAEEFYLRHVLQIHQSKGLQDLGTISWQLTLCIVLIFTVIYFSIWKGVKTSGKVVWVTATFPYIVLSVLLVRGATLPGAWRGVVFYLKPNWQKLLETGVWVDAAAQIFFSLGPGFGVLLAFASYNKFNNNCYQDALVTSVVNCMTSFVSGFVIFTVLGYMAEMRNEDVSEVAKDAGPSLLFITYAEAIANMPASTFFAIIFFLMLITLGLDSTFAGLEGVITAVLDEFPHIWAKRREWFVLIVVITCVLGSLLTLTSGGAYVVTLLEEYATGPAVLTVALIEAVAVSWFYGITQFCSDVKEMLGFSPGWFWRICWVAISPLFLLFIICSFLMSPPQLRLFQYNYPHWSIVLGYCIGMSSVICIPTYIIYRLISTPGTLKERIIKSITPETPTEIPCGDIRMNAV

What was measured:
human μ-opiate receptor = human μ-opiate receptor (Homo sapiens, UniProt P35372); assay: Measurement of the μ binding ([3H]-naloxone displacement, CHO-K1 membrane preparation); details: test substance 1 μM; inhibition of specific binding of 1 nmol/l [3H]-naloxone
ORL1 receptor = ORL1 receptor (Homo sapiens, UniProt P41146); assay: Measurement of the ORL1 binding (3H-nociceptin/orphanin FQ, membranes from recombinant CHO-ORL1 cells); details: c=1 μM; 0.5 nM 3H-nociceptin/orphanin FQ
NA uptake = NA uptake (Rattus norvegicus, UniProt Q9WTR4); assay: Measurement of the noradrenaline reuptake (synaptosomes from hypothalamus of male rat brains); details: rat brain synaptosomes (hypothalamus)
5HT uptake = 5HT uptake (Rattus norvegicus, UniProt P31652); assay: Measurement of the serotonin reuptake (synaptosomes from medulla+pons of male rat brains); details: rat brain synaptosomes (medulla+pons)

Compound | μ-Opiate receptor [1 μM], % inhibition (human μ-opiate receptor) [%] | ORL1 [1 μM], % inhibition (ORL1 receptor) [%] | NA uptake [10 μM], % inhibition (NA uptake) [%] | 5HT uptake [10 μM], % inhibition (5HT uptake) [%]
CC(=O)OCC(=O)NC1CCC(c2cccs2)(N(C)C)CC1 (centres unmarked) | 77 | 50 | – | –
N-(4-Dimethylamino-4-phenylcyclohexyl)-4-phenoxybutyramide hydrochloride, More Polar Diastereoisomer | 71 | 39 | 56 | 78
CN(C)C1(Cc2ccc(F)cc2)CCC(NC(=O)CCCOc2ccccc2)CC1 (centres unmarked) | 68 | 52 | – | –
CN(C)C1(c2cccs2)CCC(NC(=O)CSCc2ccccc2)CC1 (centres unmarked) | 95 | 96 | – | –
CN(C)C1(c2ccccc2)CCC(NC(=O)c2ccccc2COC(=O)c2ccccc2)CC1 (centres unmarked) | 97 | 82 | – | –
COCC(=O)NC1CCC(c2cccc(F)c2)(N(C)C)CC1 (centres unmarked) | 73 | 43 | – | –
CN(C)C1(c2ccccc2)CCC(NC(=O)CCCOc2ccccc2)CC1 (centres unmarked) | 95 | 99 | – | –
CC(=O)OCC(=O)NC1CCC(c2cccc(F)c2)(N(C)C)CC1 (centres unmarked) | 81 | 56 | – | –
CC(=O)OC(C(=O)NC1CCC(c2cccs2)(N(C)C)CC1)c1ccccc1 (centres unmarked) | 100 | 78 | – | –
CN(C)C1(c2ccccc2)CCC(NC(=O)COc2cccc(Cl)c2)CC1 (centres unmarked) | 97 | 97 | – | –
COCCOCC(=O)NC1CCC(c2ccccc2)(N(C)C)CC1 (centres unmarked) | 91 | 70 | – | –
CN(C)C1(c2cccc(F)c2)CCC(NC(=O)c2ccccc2COC(=O)c2ccccc2)CC1 (centres unmarked) | 98 | 88 | – | –
CC(=O)OC(C(=O)NC1CCC(c2cccc(F)c2)(N(C)C)CC1)c1ccccc1 (centres unmarked) | 99 | 93 | – | –
2-(3-Chlorophenoxy)-N-(4-dimethylamino-4-phenylcyclohexyl)acetamide hydrochloride, More Polar Diastereoisomer | 68 | 46 | 40 | –
CN(C)C1(c2cccc(F)c2)CCC(NC(=O)c2ccccc2Oc2ccccc2)CC1 (centres unmarked) | 98 | 84 | – | –
CN(C)C1(c2cccs2)CCC(NC(=O)COc2ccccc2)CC1 (centres unmarked) | 94 | 93 | – | –
N-(4-Dimethylamino-4-phenylcyclohexyl)-4-phenoxybutyramide hydrochloride, Less Polar Diastereoisomer | 100 | 99 | 77 | 98
CN(C)C1(Cc2ccccc2)CCC(NC(=O)c2ccccc2COC(=O)c2ccccc2)CC1 (centres unmarked) | 97 | 62 | – | –
Cc1cccc(CC2(N(C)C)CCC(NC(=O)c3ccccc3COC(=O)c3ccccc3)CC2)c1 (centres unmarked) | 106 | 44 | – | –
CN(C)C1(Cc2cccc(F)c2)CCC(NC(=O)c2ccccc2COC(=O)c2ccccc2)CC1 (centres unmarked) | 98 | 60 | – | –
2-(3-Chlorophenoxy)-N-(4-dimethylamino-4-phenylcyclohexyl)acetamide hydrochloride, Less Polar Diastereoisomer | 100 | 99 | 87 | 97
COC(=O)CCCC(=O)NC1CCC(c2cccc(F)c2)(N(C)C)CC1 (centres unmarked) | 93 | 91 | – | –
Cc1ccc(C)c(OC(CCC(C)(C)C(=O)NC2CCC(c3cccc(F)c3)(N(C)C)CC2)CC(=O)O)c1 (centres unmarked) | 91 | 63 | – | –
COCCOCC(=O)NC1CCC(c2cccs2)(N(C)C)CC1 (centres unmarked) | 101 | 64 | – | –
CCC(Oc1ccccc1)C(=O)NC1CCC(c2ccccc2)(N2CCCCC2)CC1 (centres unmarked) | 57 | – | – | –
